Series [1] concerns C57BL/6J male mice. The experiment in a line: Forced swimming test. The conditions noted are these: for 1-h inhibition rate: i.p., immobility time 1 hr after administration. As to the method:
Test animals: C57BL/6J male mice aged 10-12 weeks were purchased from Speifu (Suzhou) Biotechnology Co., Ltd. The animals arrived at the test center before the test and acclimated in the feeding room for more than 7 days. 5 animals per cage was bred at a temperature of 23-24°C, under a 12-hr light/12-hr dark cycle. Before the behavioral test, the animals were taken to the behavioral test chamber 1 hour in advance, to acclimate to the environment.
Forced swimming test is a standard behavioral test to evaluate the depressive behavior of rodents. […] It is generally accepted that this behavioral despair is similar to the depressive symptoms in humans. The objective of this test was to evaluate the antidepressant efficacy of the compound of the present invention in C57 mice.
In the FST test, the number of animals in each group (N) was 15, the administration mode was intraperitoneal injection (i.p.) or oral gavage (p.o.), the dosage of administration was 5, 10 or 20 mg/kg (depending on the experimental needs), and the volume of administration was 10 mL/kg. The vehicle was 0.9% physiological saline.
Test process: 1. The test was carried out in a quiet environment. The animals were weighed and acclimated in the test chamber for at least 30 min before the test.
2. The compound to be tested was dissolved in 0.9% physiological saline, and the corresponding volume of the compound was given by intraperitoneal injection (i.p.) or oral gavage (p.o.) according to the weight of mice and used as the test group. 0.9% physiological saline was used as the control group, and the dosage was the target dosage of administration. The administration process was double-blinded administration.
3. 1 hr after administration, the mice were placed in a transparent plexiglass water tank with a diameter of 15 cm and a height of 30 cm, in which water was injected to a height of about 15 cm, and the water temperature was 23-25°C. The total recording time was 6 min.
4. The immobility time of mice within later 4 min was analyzed, with which the degree of helplessness and despair of mice was reflected.
5. The immobility time of mice between the administration group and the control group was compared, and the antidepressant activity (1-h inhibition rate) of the compound to be tested was analyzed. The difference was analyzed by unpaired t-test to have statistical significance, P<0.05 means that there was a significant difference. * P<0.05, **P<0.01, ***P<0.001. [formula]

Series [2] can be described thus: Solution stability: purity of the solution over 24 hrs in the solubility test. Particulars: for solution stability: summary in words. Here is the method:
The solubilities of different forms of the compounds in media with different pH values were tested. The compound sample was weighed into a glass flask, and 1 mL or 2 mL of phosphate buffer pH=6.0, pure water, phosphate buffer pH=8.0, and/or 0.9% physiological saline respectively was added respectively, and magnetically stirred at 20°C for 24 hrs. A sample was taken for solubility test, and the purity of the solution over 24 hrs was tested. Table 18: Solubility test results of different crystal forms of the salts of Compound 2 in media with different pH values

Series [3] concerns C57BL/6J male mice. In words: Pre-pulse inhibition test. The conditions noted are these: 45 mg/kg i.p. The source says:
Pre-pulse inhibition phenomenon is an important parameter to evaluate the sensorimotor gating function, and an index to evaluate schizophrenia-like behavior. This phenomenon means that a weak stimulus occurring before a strong stimulus will reduce the degree of animal response to the strong stimulus. In the present invention, the PPI test was used to evaluate whether the compound could induce psychotomimetic-like behavior in mice.
The animal information was the same as that in Test Example 2. The number of animals in each group (N) was 10, and the administration mode was intraperitoneal injection or oral administration (p.o.). The dosage of S-ketamine was 20 mg/kg, the dosage of other compounds was 45 mg/kg, and the administration volume was 10 mL/kg. The dosage for oral administration was 10 mg/kg.
Test process: The test was carried out in a quiet environment. The mice were weighed and acclimated in the test chamber for at least 30 min before the test. The PPI test was divided into four stages, including: acclimation stage, Block 1, Block 2, and Block 3. At the beginning of the test, the mice were given corresponding doses of solvent (control group) or test compound according to their body weight. Then the mice were placed in a startle response chamber and allowed to acclimate for 5 min without stimulation. Then in Block 1-3, the mice were given startle stimuli of varying decibel intensities. In Block 1 and Block 3, 10 trials were set, and each trial had no pre-pulse stimuli. The startle stimulus was set to be white noise of 120 dB. The time interval between trials varies randomly from 10 to 15 sec. Block 2 was set to have 56 trials. There were three types of stimuli: (1) a continuous startle stimulus of 120 dB was given in 8 trials; (2) a pre-pulse stimulus of 67, 70, 73, or 76 dB was given first and then a startle stimulus of 120 dB was given in 32 trials, and only pre-pulse stimulus (two trials for each of the four pre-pulse stimuli) was given in 8 trials; and (3) no stimulus was given in 8 trials, and the duration was 200 ms. The duration of pre-pulse stimulus was 20 ms, and the fixed interval was 100 ms. The duration of startle stimulus in all Block was 40 ms, and the background noise was set to 62dB. The instrument was wiped with 75% alcohol after each test, to avoid the influence of the information left by animals in the last round (such as the smell of animals' feces and urine) on the next test result. The difference was analyzed by unpaired t-test to have statistical significance, where P<0.05 means that there was a significant difference. ^# P<0.05, * P<0.05, ** P<0.01, *** P<0.001. […] Compound 2SS mesylate tends to cause loss of PPI at a pre-pulse level of 67 dB and 70 dB. Compound 2RR mesylate causes loss of PPI at a pre-pulse level of 76 dB. […]

Setting [4] is: solution in 0.9% physiological saline, 24 h.
Where [5] appears, read: solution in Phosphate buffer pH=6.0, 24 h.
[6] abbreviates: solution in Phosphate buffer pH=8.0, 24 h.
[7] abbreviates: solution in Pure water pH=6.8, 24 h.

Counter-ions that a name gives are not always drawn.

Data on two compounds can be found in patent EP4825847A1, “NMDA RECEPTOR ANTAGONIST AND USE THEREOF” (dated 2026).

Regarding `Clc1cccc([C@@]23CCCC[C@H]2OCCN3)c1` [Crystal Form A of Compound 2 hydrochloride], the antidepressant effect result in the series with C57BL/6J male mice [1] (5 mg/kg i.p.) is “obvious antidepressant effect”. This compound also yielded a 1-h inhibition rate in the series on C57BL/6J male mice [1] (5 mg/kg, 5 mg/kg) of 24.6%. The “Purity (24 h)” value in series [2] (setting [4]) was found to be 99.98%; in series [2] (setting [5]), 99.92%; in series [2] (setting [6]), 99.93%; in series [2] (setting [7]), 99.99%. Also, in series [2], the solution stability entry was “good”.
As for `Clc1cccc([C@@]23CCCC[C@H]2OCCN3)c1` [Crystal Form C of Compound 2 mesylate], the antidepressant effect entry in the series on C57BL/6J male mice [1] (10 mg/kg i.p.) and in the series with C57BL/6J male mice [1] (20 mg/kg i.p.) was “obvious antidepressant effect” in each case. Moreover, the 1-h inhibition rate with C57BL/6J male mice [1] (5 mg/kg, 5 mg/kg) stood at 11.2%; in the series with C57BL/6J male mice [1] (10 mg/kg), 23.3%; with C57BL/6J male mice [1] (20 mg/kg) it was 24.9%. Besides, the “PPI compared with S-ketamine and the isomers 2SS and 2RR” value in the series with C57BL/6J male mice [3] (S-ketamine 20 mg/kg) was “superior to S-ketamine and significantly superior to its two comparative molecular isomers 2SS and 2RR”. In addition, the PPI entry in the series with C57BL/6J male mice [3] (native C57 mice) was “does not affect the PPI”. For the same compound, the “Purity (24 h)” value in series [2] (setting [4]) was 99.98%; in series [2] (setting [5]), 99.53%; in series [2] (setting [6]) it was 99.88%; in series [2] (setting [7]) it was 99.98%. Besides, in series [2], the solution stability entry is “good”.
